# Data from patent US7491827B2, “Aryl sulfonamides useful as inhibitors of chemokine receptor activity” (Millennium Pharmaceuticals, Inc., priority 2003, dated 2009).
# The chains behind the UniProt entries cited, without tags or fusion partners.
# UniProt P51685, whole entry: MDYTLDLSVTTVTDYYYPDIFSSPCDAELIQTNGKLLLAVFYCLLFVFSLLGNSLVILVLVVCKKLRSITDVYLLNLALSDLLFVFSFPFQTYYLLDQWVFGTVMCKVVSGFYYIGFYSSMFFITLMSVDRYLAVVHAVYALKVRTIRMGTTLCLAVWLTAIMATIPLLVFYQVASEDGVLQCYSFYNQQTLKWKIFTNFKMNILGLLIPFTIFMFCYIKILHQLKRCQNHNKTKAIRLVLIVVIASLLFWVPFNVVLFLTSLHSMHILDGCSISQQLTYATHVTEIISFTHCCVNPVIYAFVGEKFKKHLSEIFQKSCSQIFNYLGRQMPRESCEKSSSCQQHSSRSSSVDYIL
# Molecular target: cloned human CCR8 receptor stably expressed in L1.2 cells (Homo sapiens, UniProt P51685)
# Experiment: whole cell binding screen: inhibition of biotinylated human I309 binding to CCR8 (FMAT 8100 HTS)
# Conditions: read-out: Ki of compounds to inhibit I-309 binding to CCR8; L1.2/hCCR8 cells, biotinylated human I-309, 10 point concentration response starting at 10 μM
smiles,measurement,value
Cc1ccccc1C(=O)Nc1ccc(S(=O)(=O)NC2CCN(C(=O)N3CCCC3)CC2)c2ccccc12,Ki,< 500 nM
